IC50 data for one compound are collected here from patent EP2544684B1, “4,4-DISUBSTITUTED PIPERIDINE DERIVATIVES USEFUL AS INHIBITORS OF DIPEPTIDYL PEPTIDASE-1 (DPP-1)” (Janssen Pharmaceutica NV, priority 2010, dated 2011).

The chains behind the UniProt entries cited, without tags or fusion partners. Residues count along the entry.
UniProt P53634, 25-463 limits assumed: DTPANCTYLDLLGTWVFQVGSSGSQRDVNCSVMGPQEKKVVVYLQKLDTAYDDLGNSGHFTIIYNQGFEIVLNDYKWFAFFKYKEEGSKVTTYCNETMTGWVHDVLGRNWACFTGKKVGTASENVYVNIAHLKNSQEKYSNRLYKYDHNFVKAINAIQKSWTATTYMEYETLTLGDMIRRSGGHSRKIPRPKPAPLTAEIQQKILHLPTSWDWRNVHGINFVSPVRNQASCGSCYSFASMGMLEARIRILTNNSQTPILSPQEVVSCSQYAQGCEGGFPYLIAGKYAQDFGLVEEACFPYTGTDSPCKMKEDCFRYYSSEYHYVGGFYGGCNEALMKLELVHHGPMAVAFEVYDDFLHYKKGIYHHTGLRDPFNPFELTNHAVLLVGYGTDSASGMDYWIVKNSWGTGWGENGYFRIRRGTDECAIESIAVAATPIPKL

Each structure is given as a SMILES string.

The target in the assay is DPP-1 (Cathepsin C) (Homo sapiens, UniProt P53634). In words: DPP-1 Inhibition Assay (in vitro), fluorogenic substrate GR-AMC. The settings on record: recombinant human DPP-1 0.15 nM, 10 uM GR-AMC, pH 7.0, room temperature; average value where tested multiple times. In kind it is biochemical. As to the method:
Test compounds were assessed for DPP-1 (Cathepsin C) inhibitory activity using a fluorogenic substrate, GR-AMC (Glycine-Arginine-amino-4-methylcoumarin, Bachem, I-1215). The amount of amino-methylcoumarin released is proportional to the DPP-1 activity, and the reaction is monitored kinetically with a Molecular Devices plate reader using black 96-well plates.
All compounds were tested under room temperature conditions. The assay buffer consisted of 50 mM HEPES, pH 7.0, 100 mM NaCl, 2 mM glutathione (GSH), and 0.002% TWEEN 20. GSH and TWEEN 20 were added to the buffer fresh daily. Just prior to use, an in-house preparation of recombinant human DPP-1 (240 µM stock, MW 49.6 kD) was diluted 600-fold in assay buffer containing fresh 2 mM dithiothreitol (DTT) to activate the enzyme, then diluted into assay buffer (without DTT) 133-fold for a DPP-1 working solution of 3 nM. […]
Additions to a 96-well black Costar 3915 plates were as follows: 90 µL of 11 µM GR-AMC, 5 µL test compound (followed by mixing), and 5 µL 3 nM DPP-1 to start the reaction. Fluorescent reactions were monitored kinetically at 360 nm excitation, 440 nm emission on a Molecular Devices Spectramax XPS reader. The Softmax Pro software of the reader determined the initial velocity of the selected data (the first 3-5 minutes of the reaction), and the best linear regression fit of the initial kinetic data. […]

For `N#Cc1ccc(CC2(C(=O)NCC3CCCCC3)CCN(C(=O)[C@@H](N)Cc3cccs3)CC2)cc1`, the IC50 is 27 nM.
